Target: Histamine H1 receptor (Rattus norvegicus, UniProt P31390)
Assay: Compound tested for its inhibitory activity against Histamine H1 receptor

Chains of the proteins cited; added tags and fusions are not shown.
UniProt P31390, whole entry: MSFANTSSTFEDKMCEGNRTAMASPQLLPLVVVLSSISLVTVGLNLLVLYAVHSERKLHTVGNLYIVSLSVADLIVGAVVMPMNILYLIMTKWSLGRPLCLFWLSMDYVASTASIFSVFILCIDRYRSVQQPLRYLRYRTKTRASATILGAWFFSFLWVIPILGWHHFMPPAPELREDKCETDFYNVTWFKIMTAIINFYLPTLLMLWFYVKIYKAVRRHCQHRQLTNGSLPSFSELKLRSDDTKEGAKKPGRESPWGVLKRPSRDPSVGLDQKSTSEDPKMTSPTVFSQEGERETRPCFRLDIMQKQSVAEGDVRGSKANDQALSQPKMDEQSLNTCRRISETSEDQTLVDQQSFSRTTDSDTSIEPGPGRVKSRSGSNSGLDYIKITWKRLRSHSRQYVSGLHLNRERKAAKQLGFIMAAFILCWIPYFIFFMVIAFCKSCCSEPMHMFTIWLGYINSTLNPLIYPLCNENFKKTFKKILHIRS

Row | Compound | IC50 [nM]
1 | CN1CCN2c3ccccc3Cc3ccccc3C2C1 (configuration not stated) [MIANSERIN] | 6
2 | CN(C)CCCN1c2ccccc2CCc2ccc(Cl)cc21 [CLOMIPRAMINE] | 200

— ChEMBL document CHEMBL1132276, “Development of predictive retention-activity relationship models of tricyclic antidepressants by micellar liquid chromatography” (J Med Chem, 1999)
